By UniProt entry, the sequences of proteins in these tests, tags left out. Residues count along the entry.
UniProt P56817, 46-501 limits assumed: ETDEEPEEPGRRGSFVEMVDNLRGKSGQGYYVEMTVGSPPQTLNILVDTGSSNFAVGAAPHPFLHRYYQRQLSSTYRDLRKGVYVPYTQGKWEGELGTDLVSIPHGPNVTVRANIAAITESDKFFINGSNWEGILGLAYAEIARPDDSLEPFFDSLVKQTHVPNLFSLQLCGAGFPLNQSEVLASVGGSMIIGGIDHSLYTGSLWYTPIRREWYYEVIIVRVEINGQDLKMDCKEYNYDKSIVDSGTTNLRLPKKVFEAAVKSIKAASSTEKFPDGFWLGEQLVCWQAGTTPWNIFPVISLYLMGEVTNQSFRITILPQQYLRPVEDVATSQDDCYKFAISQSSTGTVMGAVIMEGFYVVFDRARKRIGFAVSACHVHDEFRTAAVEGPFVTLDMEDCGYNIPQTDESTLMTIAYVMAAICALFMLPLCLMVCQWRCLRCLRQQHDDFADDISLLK
UniProt P07339, 65-412 limits assumed: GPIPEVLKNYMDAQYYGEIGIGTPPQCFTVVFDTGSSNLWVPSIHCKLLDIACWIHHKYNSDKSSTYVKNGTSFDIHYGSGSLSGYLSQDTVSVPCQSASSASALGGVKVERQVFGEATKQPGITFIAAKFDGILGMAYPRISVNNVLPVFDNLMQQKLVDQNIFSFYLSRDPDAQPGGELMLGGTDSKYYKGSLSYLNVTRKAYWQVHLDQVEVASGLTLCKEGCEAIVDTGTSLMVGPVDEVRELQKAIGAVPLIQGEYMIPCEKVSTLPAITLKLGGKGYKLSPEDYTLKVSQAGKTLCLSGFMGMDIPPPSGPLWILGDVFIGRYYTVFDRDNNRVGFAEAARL

In patent US9556135B2, “Amino-dihydrothiazine and amino-dioxido dihydrothiazine compounds as beta-secretase antagonists and methods of use” (Amgen Inc., priority 2012, dated 2017):

Assays:
[1] = tested on: Aβ40 in conditioned medium of cells stably expressing Amyloid Precursor Protein (APP); assay: In vitro BACE cell-based assay (HEK cell assay), Aβ40 sandwich ELISA; conditions: read-out: HEK cell assay IC50; average IC50, HEK cell assay
[2] = biological target: Beta Secretase enzyme (BACE1) (Homo sapiens (Human), UniProt P56817); assay: In vitro enzymatic BACE FRET assay; type: biochemical; conditions: read-out: BACE1 FRET assay IC50; average IC50, enzyme assay
Cathepsin D (Cat D) = Cathepsin D (Cat D) (Homo sapiens (Human), UniProt P07339); assay: In vitro enzymatic Cathepsin D (Cat D) FRET assay; type: biochemical; conditions: read-out: CatD IC50
Method: In Vitro Enzymatic Cathepsin D (Cat D) FRET (Fluorescence Resonance Energy Transfer) Assay Recombinant Cat D was expressed in CHO cells. […] The Cat D enzyme (9 nM) is pre-incubated for one hour with inhibitors, typically in about 1 uL of DMSO according to a serial dilution, is added thereto. […] The FRET assay is terminated with by addition of Tris buffer, which raises the pH to neutrality, and the fluorescence is determined. The FRET substrate is a peptide with commercially available fluorophore and quencher, on opposite sides of the BACE cleavage site. The Cat D substrate peptide sequence is based on sequence #1 of Table 1 from Gulnik et al. […] Where available, the in-vitro Cat D FRET assay data for each of the Examples, conducted by the first procedure, is provided.

IC50 [1] [µM]	IC50 [2] [µM]	IC50 (Cathepsin D (Cat D)) [µM]	SMILES
> 15.6	–	–	NC1=N[C@@](CF)(c2cc(Br)ccc2F)CS(=O)(=O)C12CC2
10.6	2.28	78.9	NC1=N[C@](CF)(c2cc(Br)ccc2F)CS(=O)(=O)C12CC2
